PubChem BioAssay AID720508 (The Scripps Research Institute Molecular Screening Center, 2013)
This is a selection; strong and weak results do not stand in their true shares. Active and inactive are the calls of the source.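 How the source made its calls: active means inhibition above the mean of compounds falling within the control limits plus 3 SD of them (cut at about 14% in these data); inactive means the rest.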

By UniProt entry, the sequences of proteins in these tests, tags left out.
UniProt P02675, whole entry, looked up: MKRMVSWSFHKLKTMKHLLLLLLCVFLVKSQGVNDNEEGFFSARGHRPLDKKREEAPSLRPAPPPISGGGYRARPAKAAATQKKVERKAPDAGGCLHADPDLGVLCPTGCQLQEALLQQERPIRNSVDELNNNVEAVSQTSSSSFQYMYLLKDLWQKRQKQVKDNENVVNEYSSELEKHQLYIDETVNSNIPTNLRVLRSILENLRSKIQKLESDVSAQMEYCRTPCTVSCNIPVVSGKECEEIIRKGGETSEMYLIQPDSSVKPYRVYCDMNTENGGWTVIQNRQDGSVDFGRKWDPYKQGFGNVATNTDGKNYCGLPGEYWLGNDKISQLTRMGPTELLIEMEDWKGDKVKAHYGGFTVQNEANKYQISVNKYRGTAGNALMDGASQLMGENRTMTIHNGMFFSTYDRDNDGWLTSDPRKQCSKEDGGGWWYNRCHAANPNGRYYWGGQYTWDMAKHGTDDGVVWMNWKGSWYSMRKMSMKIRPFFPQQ

target: Fibrinogen beta chain (Homo sapiens) (UniProt P02675); assay: small molecules displacing Tn7 from DD(E) complex – biochemical, fluorescence polarization, human fibrin, Tn7 probe, primary screen (AID 720508); conditions: FP displacement of FITC-Tn7 peptide from fibrin DD(E); at 8.3 µM; hits give high values; 0% = median of compound wells per plate;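 further: 0% = plate median of compound wells and 100% = 10 µM Aha-Tn7 peptide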

Structure (SMILES)	inhibition
NC(=O)Nc1ccc([As](=O)(O)O)cc1	inactive: 11.8%
